Our source for the DC50 and IC50 values is US20260382731A1, “BCL-2/BCL-XL PROTEIN DEGRADER AND USE THEREOF” (published 2026).

Protein sequences, listed by entry. Tags and fused reporters are not part of them.
UniProt Q07817, whole entry: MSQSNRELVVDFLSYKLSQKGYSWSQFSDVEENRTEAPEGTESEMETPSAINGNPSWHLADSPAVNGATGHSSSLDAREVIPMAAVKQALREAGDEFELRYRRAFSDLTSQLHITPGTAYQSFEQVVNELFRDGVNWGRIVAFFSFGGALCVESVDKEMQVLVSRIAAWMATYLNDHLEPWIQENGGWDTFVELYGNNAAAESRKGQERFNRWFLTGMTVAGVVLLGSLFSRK

Like-named read-outs stand apart in the source and are kept apart here.

One experiment addresses BCL-XL (Homo sapiens, UniProt Q07817). Put plainly: Immunoblotting: BCL-XL protein degradation.
The next experiment concerns MOLT-4 cells. Briefly: Cell viability assay, MOLT-4 (CellTiter-Glo, 72 h). The settings on record: read-out: MOLT4 Cell viability IC50.
Another experiment relates to NCI-H146 cells. Briefly: Cell viability assay, NCI-H146 (CellTiter-Glo, 72 h). The settings on record: read-out: NCI-H146 Cell viability IC50. As to the method: Human T-ALL cell MOLT-4 or SCLC NCI-H146 was cultured using standard cell culture conditions in RPMI-1640 supplemented with 10% FBS in humidified incubator at 37 °C, 5% CO2. To assess the effect of BCL-XL PROTAC degraders on cell viability, exponentially growing cells were seeded at a density of 10,000 cells/well in 96-well plates. After cell seeding, serially-diluted compound or DMSO was added to the cells (in concentration ranging from 0 to 10 uM, 3* dilution series), and plates were incubated for 72 hours. Cell viability was measured using a CellTiter-Glo Luminescent Cell Viability Assay kit (Promega) according to the manufacturer's protocol. The luminescence signal of treated cells was normalized to DMSO control. The dose response curves and IC50 values were generated using Prism.
(ATP-based viability assays read luminescence as a measure of living cells.)

The next experiment relates to human platelets. Put plainly: Platelet viability test (CellTiter-Glo, 72 h). The settings on record: read-out: Human platelet IC50.

As usually defined, the DC50 is the concentration at which degradation of the target reaches its halfway point. The term IC50 denotes the concentration at which inhibition is half-maximal. In the case of `Cc1ncsc1-c1ccc([C@H](C)NC(=O)[C@@H]2C[C@@H](O)CN2C(=O)[C@@H](NC(=O)CCCCCC(=O)N2CCN(CC[C@H](CSc3ccccc3)Nc3ccc(S(=O)(=O)NC(=O)c4ccc(N5CCN(CC6=C(c7ccc(Cl)cc7)CCC(C)(C)C6)CC5)cc4)cc3S(=O)(=O)C(F)(F)F)CC2)C(C)(C)C)cc1`, the DC50 turned out to be 11 nM on BCL-XL (read-out: MDA-MB-231 degradation DC50, MDA-MB-231 cells) and 20 nM at BCL-XL (read-out: MOLT4 Degradation DC50, MOLT4 cells). The values for the IC50 with MOLT-4 cells, in the experiment on NCI-H146 cells and in the experiment with human platelets were 44 nM, 140 nM and 8350 nM, respectively.
As for `CCn1c(C)c(S(C)(=O)=O)c(-c2cc(F)cc(N3CCN([C@H]4CC[C@H](NS(=O)(=O)c5ccc(N[C@H](CCN6CCN(C7CCN(CCOc8cc([C@H](C(=O)N9C[C@H](O)C[C@H]9C(=O)N[C@@H](CO)c9ccc(-c%10scnc%10C)cc9)C(C)C)on8)CC7)CC6)CSc6ccccc6)c(S(=O)(=O)C(F)(F)F)c5)CC4)CC3)c2)c1-c1ccc(F)cc1`, the results for the half-maximal inhibitory concentration (IC50) in the experiment on MOLT-4 cells and with NCI-H146 cells were 10 nM and 144 nM, respectively.
Consider `CCn1c(C)c(S(C)(=O)=O)c(-c2cc(F)cc(N3CCN(c4ccc(NS(=O)(=O)c5ccc(N[C@H](CCN6CCN(C7CCN(CCOc8cc([C@@H](C(=O)N9C[C@H](O)C[C@H]9C(=O)N[C@@H](CO)c9ccc(-c%10scnc%10C)cc9)C(C)C)on8)CC7)CC6)CSc6ccccc6)c(S(=O)(=O)C(F)(F)F)c5)nc4)CC3)c2)c1-c1ccc(F)cc1`, for which the results for the IC50 in the experiment with MOLT-4 cells and in the experiment on NCI-H146 cells were 393 nM and 850 nM, respectively.
For the molecule `CCn1c(C)c(S(C)(=O)=O)c(-c2cc(F)cc(N3CCN(c4ccc(NS(=O)(=O)c5ccc(N[C@H](CCN6CCN(C7CCN(CCOc8cc([C@H](C(=O)N9C[C@H](O)C[C@H]9C(=O)N[C@@H](CO)c9ccc(-c%10scnc%10C)cc9)C(C)C)on8)CC7)CC6)CSc6ccccc6)c(S(=O)(=O)C(F)(F)F)c5)nc4)CC3)c2)c1-c1ccc(F)cc1`, the IC50 in the experiment with MOLT-4 cells is 6 nM; in the experiment with NCI-H146 cells it was 32 nM.
In the case of `CCn1c(C)c(S(C)(=O)=O)c(-c2cc(F)cc(N3CCN(c4ncc(NS(=O)(=O)c5ccc(N[C@H](CCN6CCN(C7CC(Oc8cc([C@@H](C(=O)N9C[C@H](O)C[C@H]9C(=O)N[C@@H](CO)c9ccc(-c%10scnc%10C)cc9)C(C)C)on8)C7)CC6)CSc6ccccc6)c(S(=O)(=O)C(F)(F)F)c5)cn4)CC3)c2)c1-c1ccc(F)cc1` (single isomer, unassigned) [371], the IC50 in the experiment on MOLT-4 cells turned out to be 306 nM; in the experiment with NCI-H146 cells, 669 nM.
On the same counts, the results for `CCn1c(C)c(S(C)(=O)=O)c(-c2cc(F)cc(N3CCN(c4ncc(NS(=O)(=O)c5ccc(N[C@H](CCN6CCN(CCCc7cc([C@H](C(=O)N8C[C@H](O)C[C@H]8C(=O)N[C@@H](CO)c8ccc(-c9scnc9C)cc8)C(C)C)on7)CC6)CSc6ccccc6)c(S(=O)(=O)C(F)(F)F)c5)cn4)CC3)c2)c1-c1ccc(F)cc1` are 4 nM and 14 nM.
`CCn1c(C)c(S(C)(=O)=O)c(-c2cc(F)cc(N3CCN(c4ncc(NS(=O)(=O)c5ccc(N[C@H](CCN6CCN(CCCOc7cn([C@H](C(=O)N8C[C@H](O)C[C@H]8C(=O)N[C@@H](CO)c8ccc(-c9scnc9C)cc8)C(C)(C)C)nn7)CC6)CSc6ccccc6)c(S(=O)(=O)C(F)(F)F)c5)cn4)CC3)c2)c1-c1ccc(F)cc1`: the results for the IC50 in the experiment on MOLT-4 cells and in the experiment on NCI-H146 cells were 4 nM and 15 nM, respectively.
